The list shows a part of the results, in another mix than the full data. Some results for these compounds are left out of this collection, so the calls shown say nothing about other tests. The source made the active and inactive calls.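 Rule for the calls: active = inhibition of at least 40% at 20 µM, with no more than 30% in the related APOBEC3A deaminase screen; inactive = the rest.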
molecular target: DNA dC->dU-editing enzyme APOBEC-3G (Homo sapiens) (UniProt Q9HC16); experiment: inhibition of human A3G ssDNA deamination – biochemical, fluorescence, single-stranded DNA substrate, uHTS, primary screen (AID 493012); settings: recombinant A3G, ssDNA deamination FAM/TAMRA fluorescence; at 20 µM; stronger effect = higher value;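 note: plate controls were DMSO wells with A3G for no effect and wells lacking A3G enzyme for full effect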

The chains behind the UniProt entries cited, without tags or fusion partners.
UniProt Q9HC16, whole entry: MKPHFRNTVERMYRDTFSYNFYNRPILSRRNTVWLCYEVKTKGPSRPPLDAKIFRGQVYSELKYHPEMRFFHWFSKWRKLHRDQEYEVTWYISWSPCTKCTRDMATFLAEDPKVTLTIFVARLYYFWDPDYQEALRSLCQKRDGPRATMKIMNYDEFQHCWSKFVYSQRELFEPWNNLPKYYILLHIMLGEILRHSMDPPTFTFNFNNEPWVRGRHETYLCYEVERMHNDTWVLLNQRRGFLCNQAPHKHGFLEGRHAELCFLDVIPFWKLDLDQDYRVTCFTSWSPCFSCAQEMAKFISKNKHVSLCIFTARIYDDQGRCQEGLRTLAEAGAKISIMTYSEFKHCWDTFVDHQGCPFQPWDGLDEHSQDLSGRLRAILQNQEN

Row | Compound | inhibition
1 | CN(C)c1ccc(C(=O)NCC2(N(C)C)CCCCC2)cc1 | inactive: 0.855%
2 | CN(C)C1CCCC1OC(=O)C(O)(c1ccccc1)c1ccccc1 (centres undefined) | inactive: -12.1%
3 | Cc1ccccc1C(=O)NCC1(N2CCCCC2)CCCCC1 | inactive: 0.075%
4 | COc1ccc(C(=O)NCC2(N(C)C)CCCCC2)cc1 | inactive: -7.52%
5 | O=C(NCC1(N2CCCCC2)CCCCC1)c1cccc(Br)c1 | inactive: -5.67%
6 | CCN1CCCC(OC(=O)C2(O)c3ccccc3C=Cc3ccccc32)C1 (centres undefined) | inactive: -4.48%
7 | Cc1cc(C(=O)NCC2(N3CCCCC3)CCCCC2)ccc1[N+](=O)[O-] | inactive: 6.21%
8 | O=C(NCC1(N2CCCCC2)CCCCC1)c1cc(F)c(F)cc1Cl | inactive: -5.74%
9 | C=CCN1CCN(CCOC(=O)C(O)(c2ccccc2)c2ccccc2)CC1 | inactive: -6.1%
10 | CN1[C@@H]2CC[C@H]1CC(OC(=O)C(O)(c1ccccc1)c1ccccc1)C2 (some centres undefined) | inactive: 1.49%
11 | O=C(NCC1(N2CCCCC2)CCCCC1)c1cc([N+](=O)[O-])ccc1Cl | inactive: -0.421%
12 | Cc1ccc(C(=O)NCC2(N3CCCCC3)CCCCC2)cc1 | inactive: -10%
13 | COc1cc(SC)ccc1C(=O)NCC1(N(C)C)CCCCC1 | inactive: -2.57%
14 | CCN(CC)CC(C)C(C)OC(=O)C(O)(c1ccccc1)c1ccccc1 (centres undefined) | inactive: -4.82%
15 | CC(C)N1C(=O)CC2(CCN(CCOC(=O)C(O)(c3ccccc3)c3ccccc3)CC2)C1=O | inactive: -2.52%
16 | O=C(OC1CN2CCC1CC2)C(CO)(c1ccccc1)c1ccccc1 (centres undefined) | inactive: -5.03%
17 | CC(C)Oc1ccc(C(=O)NCC2(N(C)C)CCCCC2)cc1 | inactive: -8.09%
18 | CN(C)c1cccc(C(=O)NCC2(N(C)C)CCCCC2)c1 | inactive: -3.56%
19 | COc1ccc(Br)c(C(=O)NCC2(N3CCCCC3)CCCCC2)c1 | inactive: -3.17%
20 | COc1cc(C(=O)NCC2(N(C)C)CCCCC2)c([N+](=O)[O-])cc1OC | inactive: -10.2%
21 | CN(C)C1(CNC(=O)c2ccc(Br)cc2)CCCCC1 | inactive: 4.24%
22 | O=C(NCC1(N2CCCCC2)CCCCC1)c1cccc(Cl)c1 | inactive: -7.89%
23 | COc1ccc(Cl)cc1C(=O)NCC1(N(C)C)CCCCC1 | inactive: -2.96%
24 | COc1cccc(C(=O)NCC2(N3CCCCC3)CCCCC2)c1 | inactive: -3.07%

Source: PubChem BioAssay AID493012 (Sanford-Burnham Center for Chemical Genomics, 2011)
